Only a part is listed here, and it is no random draw. The source made the active and inactive calls. Rule as the data show it: active = inhibition above about 40%; inactive = the rest.

The results in this text go back to PubChem BioAssay AID588649 (The Scripps Research Institute Molecular Screening Center, 2011).

The test has as its system Fam108b (ABHD17B) [Mus musculus]. Briefly: inhibition of mouse Fam108b by HTS hits, late-stage follow-up, biochemical, gel-based ABPP, soluble recombinant form (AID 588649). The note with it: fluorophosphonate probe, at 20 µM, stronger effect = higher value.

Take `CN(C)C(=O)c1cc([N+](=O)[O-])cc2c1-c1c(cc([N+](=O)[O-])cc1[N+](=O)[O-])C2=O`: the inhibition was inactive: 35%.
